Measured values: patent publication US7632645B1, “EGF receptor transactivation by G-protein-coupled receptors requires metalloproteinase cleavage of proHB-EGF” (Max-Planck-Gesellschaft zur forderung der Wissenschaften …, priority 1999, dated 2009)

The chains behind the UniProt entries cited, without tags or fusion partners. Where a name states a change or a piece, a line headed by the entry shows the natural chain unless it says otherwise.
UniProt P09619: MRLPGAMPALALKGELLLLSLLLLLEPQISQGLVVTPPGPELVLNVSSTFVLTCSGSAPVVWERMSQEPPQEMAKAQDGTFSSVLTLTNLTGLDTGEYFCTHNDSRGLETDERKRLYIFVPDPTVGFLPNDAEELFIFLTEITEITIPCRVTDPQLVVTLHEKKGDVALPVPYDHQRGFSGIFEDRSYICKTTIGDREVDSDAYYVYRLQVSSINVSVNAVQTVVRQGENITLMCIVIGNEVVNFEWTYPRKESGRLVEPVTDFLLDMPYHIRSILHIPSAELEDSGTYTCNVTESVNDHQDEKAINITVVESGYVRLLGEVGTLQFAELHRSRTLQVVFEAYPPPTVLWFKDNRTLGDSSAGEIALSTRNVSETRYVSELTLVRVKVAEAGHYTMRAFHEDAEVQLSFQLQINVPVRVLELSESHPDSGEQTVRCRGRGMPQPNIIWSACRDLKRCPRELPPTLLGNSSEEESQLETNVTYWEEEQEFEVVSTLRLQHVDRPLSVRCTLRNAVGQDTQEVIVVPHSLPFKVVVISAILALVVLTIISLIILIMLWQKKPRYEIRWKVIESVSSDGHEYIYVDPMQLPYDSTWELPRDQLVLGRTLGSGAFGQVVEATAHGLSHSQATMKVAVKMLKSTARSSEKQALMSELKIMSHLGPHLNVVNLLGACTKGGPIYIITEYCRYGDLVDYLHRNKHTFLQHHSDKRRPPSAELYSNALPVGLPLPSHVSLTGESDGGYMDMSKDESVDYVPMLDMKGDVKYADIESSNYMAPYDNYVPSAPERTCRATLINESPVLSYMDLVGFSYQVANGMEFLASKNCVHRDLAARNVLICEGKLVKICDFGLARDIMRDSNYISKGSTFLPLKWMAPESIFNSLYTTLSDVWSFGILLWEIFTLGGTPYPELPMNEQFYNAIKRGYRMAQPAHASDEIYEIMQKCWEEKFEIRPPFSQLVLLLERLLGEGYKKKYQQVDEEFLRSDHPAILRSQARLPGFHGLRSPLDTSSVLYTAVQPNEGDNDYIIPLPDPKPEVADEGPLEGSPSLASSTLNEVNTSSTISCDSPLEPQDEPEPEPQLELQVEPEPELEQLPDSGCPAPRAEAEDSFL

Molecular target: T1, EP-R chimera (EGFR extracellular, PDGFR transmembrane and cytoplasmic signalling domain) (Homo sapiens, UniProt P00533+P09619)
T1 construct: the platelet-derived growth-factor receptor (PDGFR) transmembrane and cytoplasmic signalling domain; human EGFR extracellular domain (fusion partner); expressed in transfected cells
Test: Tyrosine phosphorylation of EP-R chimera in Rat-1/EP-R cells (immunoprecipitation with mAb 108.1, αPY immunoblot)
Type: cell-based
Conditions: tyrphostin (AG1478 250 nM, AG1295 1 μM) added 15 minutes before thrombin 2 U/ml, FIG. 1b

COc1cc2ncnc(Nc3cccc(Cl)c3)c2cc1OC [AG1478]
effect on thrombin-induced tyrosine phosphorylation of the chimeric receptor EP-R: but not
